In patent publication US7718681B2, “5-(1,3-Diaryl-1H-pyrazol-4-ylmethylene)-thiazolidine,2,4-dione derivatives useful as anticancer agent” (Korea Research Institute of Chemical Technology, priority 2005, dated 2010) one finds IC50 data, which are given here for four molecules.

Protein sequences, listed by entry. Tags and fused reporters are not part of them. Residues count along the entry.
UniProt P30305, 392-580 limits assumed: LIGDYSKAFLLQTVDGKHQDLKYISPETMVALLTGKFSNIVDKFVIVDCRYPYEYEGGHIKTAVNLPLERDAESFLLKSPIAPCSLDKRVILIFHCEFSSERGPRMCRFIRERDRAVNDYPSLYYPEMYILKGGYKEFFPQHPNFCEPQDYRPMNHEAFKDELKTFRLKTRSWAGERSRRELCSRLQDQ

A word on the IC50: it is the concentration that inhibits the measured activity by half.

For this test, the target named is CDC25B (Homo sapiens, UniProt P30305). Put plainly: CDC25B enzyme assay. Particulars: catalytic domain of CDC25B (aa 378-566) GST fusion, 20 μm FDP, 1 hour at room temperature, fluorescence. The procedure:
Catalytic domain of CDC25B (aa 378-566) was expressed and produced in E. coli into a GST fusion protein, which was used as zymogen. Enzyme assay was carried out on a 96-well plate, with the final reaction volume per well adjusted to 200 μL. 170 μL of a buffer solution (30 mM Tris buffer, pH 8.5, 75 mM NaCl, 0.67 mM EDTA, 1 mM DTT), 20 μL (0.2 μg) of CDC25B enzyme and 10 μL of the test compound dissolved in DMSO were added, so that the final concentration became 1 μg/mL CDC25B and 20 μm FDP. Measurement was made after culturing at room temperature for 1 hour. FDP and DTT were added to the buffer solution just before assay, so that a fresh status could be maintained. After 1 hour of culturing, fluorescence resultant from the enzymatic reaction was measured at 485 nm (excitation) and 538 nm (emission).
The screened compound was treated to a final concentration of 1, 2, 5 and 10 μm to obtain the % inhibition value. If the inhibitory effect was low (less than 50% at […]), the concentration of the compound was increased to 20 μm and the % inhibition value and the IC50 value were obtained.

`O=C1NC(=O)/C(=C/c2cn(-c3ccccc3)nc2-c2cccc([N+](=O)[O-])c2)S1` yielded a concentration for half-maximal inhibition (IC50) of 1.03 µM.
In turn, `C=CCN1C(=O)S/C(=C\c2cn(-c3ccccc3)nc2-c2ccc(OCC)c(I)c2)C1=O` had an IC50 of 4.16 µM.
The same measure for `CCCOc1c(Br)cc(-c2nn(-c3ccccc3)cc2/C=C2\SC(=O)NC2=O)cc1Br` [Compound 163]: 0.58 µM.
The same measure for `CCCOc1c(C(C)(C)C)cc(-c2nn(-c3ccccc3)cc2/C=C2\SC(=O)N(CC)C2=O)cc1C(C)(C)C`: 4.2 µM.
